## Antibody variant affinities, Ab-14 heavy chain, assay 1

The measurements come from Engelhart et al. 2022 (doi:10.1038/s41597-022-01779-4) through the FLAb antibody collection.

All variants were tested on one target, the spike HR2 peptide PDVDLGDISGINAS (SARS-CoV-2).

Parent: Ab-14, a human scFv built as VH, three GGGGS repeats, VL. Only the CDRs of the heavy chain vary.
VH: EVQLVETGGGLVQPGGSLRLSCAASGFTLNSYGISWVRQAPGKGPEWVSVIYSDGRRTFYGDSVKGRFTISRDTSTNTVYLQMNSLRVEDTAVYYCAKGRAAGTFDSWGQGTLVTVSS
VL: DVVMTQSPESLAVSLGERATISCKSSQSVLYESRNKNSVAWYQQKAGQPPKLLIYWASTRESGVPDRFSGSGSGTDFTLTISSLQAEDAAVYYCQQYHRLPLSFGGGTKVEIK

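Library AAYL49 holds single substitutions and randomly drawn double and triple substitutions in the CDRs. In AlphaSeq, yeast of one mating type display the scFv and yeast of the other type display the target. Pairs that bind mate more often; barcode pairs of the diploids are counted by sequencing. A regression on co-assayed BCL2-family reference pairs converts the normalised counts of each replicate to an apparent Kd. Mating was done three times.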

Variants are written as CDR1, CDR2 and CDR3 of the heavy chain (limits as in the source). Parent: GFTLNSYGIS, VIYSDGRRTFYGDSVK, GRAAGTFDS. This list gathers variants with a substitution at A101 (VH, numbered from residue 1). Values are apparent Kd, the geometric mean of the replicates that gave a signal; lower means stronger binding. "no signal" marks a missing value. The strain was present, yet no cells mated with the target were sequenced in any replicate, which points to weak or no binding. Empty control strains, which show no peptide, gave a signal in 15% of pairings with library AAYL49; the median was 11 µM and 95% of these signals were weaker than 680 nM. No background was subtracted.

The variant GFTLLSYGIS / VIYSDGRRTFYGDSVK / GRHAYTFDS gave 12 µM (1 of 3 replicates). For GFTLNSYGIS / VIYPDGRRTFYGDSVA / GRIAGTFDS, the assay gave 12 nM (3 of 3 replicates). With GFTLNSYGIS / VWISDGRRTFYGDSVK / GRKAGTFDS the result was 86 µM (2 of 3 replicates). For GFTLNSYGIS / VIYSDGRRTFYGDSVK / GRHAGTFDS, the assay gave 21 nM (3 of 3 replicates). With GFILNSYGIS / VIYSDGRRTFYGDAVK / GRTAGTFDS the result was 4.4 nM (3 of 3 replicates). For GFTLNSYGIS / VIYSDGRRTFYGDSVK / GRLAGTVNS, the assay gave 1.2 nM (3 of 3 replicates). For GFTGNSYGIS / VIYSDGRRQFYGDSVK / GRHAGTFDS, the assay gave 2.7 µM (2 of 3 replicates).

The variant GFTLNSYGIS / VIYSTGQRTFYGDSVK / GRIAGTFDS gave 120 nM (1 of 3 replicates). With GFTLNSYGIS / VGYSDGRRTFYGDSVK / GRKAGTFDS the result was 14 µM (1 of 3 replicates). For GFTLNSYGIS / VIYSDGRYTWYGDSVK / GRHAGTFDS, the assay gave 160 µM (2 of 3 replicates). For GFTLNSYGIS / VIASDGRRKFYGDSVK / GRLAGTFDS, the assay gave 1.2 µM (1 of 3 replicates). With GFTLNSYHGS / VIYSDGRRTFYGDSVK / GRDAGTFDS the result was 8.4 µM (1 of 3 replicates). With GFTLNSYGVS / VIYSDGRRTFYGDSVK / GRIAGTFDS the result was 3.7 nM (3 of 3 replicates). For IFTLNSYGNS / VIYSDGRRTFYGDSVK / GREAGTFDS, the assay gave 14 µM (2 of 3 replicates).

With GFTLNSYGIS / VIYSDGIRTFYGDSVK / GRRAGTFDS the result was 4.5 nM (3 of 3 replicates). With GFTLNSYAIS / VIYSDGRRTFYGDSVH / GRYAGTFDS the result was 2.0 µM (1 of 3 replicates). For GFTVNSYGIS / VIYSDGRRTFYGDSVK / GRSAGTFDS, the assay gave 410 nM (3 of 3 replicates). The variant GFTLNSYGIS / VIYSDGRRTFYGHSVK / GRMAGTFDS gave 110 nM (3 of 3 replicates). The variant GFTLNSYGIS / VIYSDGRRTFYGDSVK / GRVWGTFDP showed 5.7 nM (3 of 3 replicates). For FFTLNSYGIS / VIYSDGRRTFYEDSVK / GRDAGTFDS, the assay gave no signal (0 of 3 replicates). The variant QFTLNEYGIS / VIYSDGRRTFYGDSVK / GREAGTFDS showed 25 µM (2 of 3 replicates).

The variant GFTLNSYEIS / VIYSDGRRTFYGDSVK / GRMAGTMDS gave 1.5 µM (3 of 3 replicates). For GFTLNSYGIS / VYYSDGRRTFYGDSVK / GRNAGTDDS, the assay gave 70 µM (1 of 3 replicates). For GFTLNSYGIS / VIYSDGRREFYGDSVK / GREAFTFDS, the assay gave 1.3 µM (1 of 3 replicates). With GFTLNSYGIS / VSISDGRRTFYGDSVK / GRIAGTFDS the result was 56 µM (1 of 3 replicates). For GFTLNSYGIW / VIYSDHRRTFYGDSVK / GRSAGTFDS, the assay gave no signal (0 of 3 replicates). The variant GFTLNSYGIS / VLYSDGRRTFYGDSVK / GRLAGYFDS gave 12 µM (1 of 3 replicates). For GFTLNSYGIS / VIYSDARRRFYGDSVK / GRTAGTFDS, the assay gave 690 nM (3 of 3 replicates).

With GFTLNSYGIS / VIYSDGRRTFYGDPVK / GRCAGTFDS the result was 130 nM (3 of 3 replicates). With GFTLNIYGIS / VIYSDGRRTFYGDSVK / GRQAGTMDS the result was 16 µM (1 of 3 replicates). The variant GFTLNSYGIS / VIYSDGRRRFYGDSVK / GRIAGTFDS showed 26 nM (3 of 3 replicates). For GFTLNSYGIS / RIYSDGRRTFYGDSYK / GRPAGTFDS, the assay gave 2.6 µM (1 of 3 replicates). For GFTLNSYGIS / HIYVDGRRTFYGDSVK / GRNAGTFDS, the assay gave no signal (0 of 3 replicates). The variant GFTWNSYGIS / VIYSDGRRTFYGDSVK / GRNAGGFDS gave 1.0 mM (1 of 3 replicates). The variant GFTLNSYGIS / VIYSDGRRTFYGDSVL / GRIAGTFDS gave 44 nM (3 of 3 replicates).

The variant GFTLISYGIS / VIYSDGRRTFYGDSVK / GRYHGTFDS showed no signal (0 of 3 replicates). With GFTLNSYGIS / VYYSDGRRTFYGDIVK / GRRAGTFDS the result was no signal (0 of 3 replicates). The variant GFYLNSYGWS / VIYSDGRRTFYGDSVK / GRGAGTFDS showed no signal (0 of 3 replicates). With GFTLNSYGIS / VIYFDGRRTWYGDSVK / GRRAGTFDS the result was 320 nM (2 of 3 replicates).

The closing 6 entries, repeated:

Variant GFTWNSYGIS / VIYSDGRRTFYGDSVK / GRNAGGFDS showed 1.0 mM (1 of 3 replicates).
Variant GFTLNSYGIS / VIYSDGRRTFYGDSVL / GRIAGTFDS showed 44 nM (3 of 3 replicates).
Variant GFTLISYGIS / VIYSDGRRTFYGDSVK / GRYHGTFDS showed no signal (0 of 3 replicates).
Variant GFTLNSYGIS / VYYSDGRRTFYGDIVK / GRRAGTFDS showed no signal (0 of 3 replicates).
Variant GFYLNSYGWS / VIYSDGRRTFYGDSVK / GRGAGTFDS showed no signal (0 of 3 replicates).
Variant GFTLNSYGIS / VIYFDGRRTWYGDSVK / GRRAGTFDS showed 320 nM (2 of 3 replicates).

For reference, the parent read 4.4 nM as the reference entry and 13 µM (one replicate of three) as a member of this library.